Literature values in article PMC7811525, “Virtual screening of potentially endocrine-disrupting chemicals against nuclear receptors and its application to identify PPARγ-bound fatty acids” (Archives of Toxicology, 2020).

Test system: AR
Details: active/inactive call; ref ToxCast database released in October 2015; cited from earlier work

CC(C)OP(=S)(OC(C)C)SCCNS(=O)(=O)c1ccccc1
ToxCast activity against AR: active
